# Antibody variant affinities, Ab-14 light chain, assay B

Data: MIT Lincoln Laboratory AlphaSeq set, Li et al. 2023, doi:10.1038/s41467-023-39022-2, as distributed in FLAb.

Target peptide (SARS-CoV-2 spike, HR2 region): PDVDLGDISGINAS

Ab-14 is the parent antibody, in scFv form: VH, then a 15-residue (Gly4Ser)3 linker, then VL. The heavy chain is unchanged in all variants.
VH: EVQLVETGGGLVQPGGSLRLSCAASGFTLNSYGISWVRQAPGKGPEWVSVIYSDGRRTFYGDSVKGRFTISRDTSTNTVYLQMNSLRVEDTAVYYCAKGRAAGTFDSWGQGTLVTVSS
VL: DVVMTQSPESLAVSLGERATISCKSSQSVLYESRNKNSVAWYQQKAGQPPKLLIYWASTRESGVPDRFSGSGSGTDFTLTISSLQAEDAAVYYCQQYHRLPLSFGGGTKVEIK

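The variants were designed computationally from a first round of random CDR variants and then made and measured. Their group label is 14L_En_HC (En: ensemble of fine-tuned language models; HC: hill climbing; a sequence that several methods proposed may carry one label only). The assay is AlphaSeq: two haploid yeast populations carry antibody and antigen on their surface. Mating (16 h, 30 °C) was followed by selection of diploids and sequencing of their barcodes. A regression on co-assayed BCL2-family reference pairs converts the normalised counts of each replicate to an apparent Kd. Each pool was mated in six replicate cultures.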

The parent's light chain CDRs are KSSQSVLYESRNKNSVA, WASTRES, QQYHRLPLS; each variant's own CDRs replace them letter for letter.
Numbers give log10(Kd / nM), so 0 is 1 nM and 3 is 1 µM. Smaller is tighter.
"nd" marks a missing value. The strain was present, yet no cells mated with the target were sequenced in that replicate, which points to weak or no binding.
The authors' rule: three or more of the six replicates give a measured affinity, fewer mean a poor binder.
As a blank, each scFv also met three strains without target: over all light chain designs, 4% of these pairings were detected, typically at 2.64 and seldom below 1.59. Also given: how often the same scFv was detected with the empty control strains, with their mean in brackets.
Values of this round are not directly comparable with the first-round values of the same sequences.
The parent sequence was in this pool as ten entries: three were never detected, three once, and four in most replicates, with averages from 0.34 to 2.37.

{"CDR-L1": "SIYDATGMESRNKNPIA", "CDR-L2": "DVSTRPN", "CDR-L3": "QQYDRLPLS", "log10 Kd (nM) by replicate": "0.26 / 0.14 / 0.04 / 0.03 / 0.07 / 0.21", "signal with controls": "0/18"}
{"CDR-L1": "KLGSSSRFESSNKASIA", "CDR-L2": "DNSTRES", "CDR-L3": "QQYHRLPLS", "log10 Kd (nM) by replicate": "0.07 / 1.38 / 0.98 / 0.92 / 1.18 / 0.47", "signal with controls": "3/18 (2.69)"}
{"CDR-L1": "KIGGVTNGISRSKNSVA", "CDR-L2": "EQSTRED", "CDR-L3": "QQYDRLPLQ", "log10 Kd (nM) by replicate": "nd / nd / -0.21 / nd / 1.42 / 0.54", "signal with controls": "0/18"}
{"CDR-L1": "TISQSFMMENQFKNSVA", "CDR-L2": "QASTREE", "CDR-L3": "QCYDRLPLS", "log10 Kd (nM) by replicate": "nd / nd / nd / nd / nd / nd", "signal with controls": "1/18 (1.44)"}
{"CDR-L1": "KLSQSVNMTGKAKNSVA", "CDR-L2": "ELSFREK", "CDR-L3": "QQYERLPLS", "log10 Kd (nM) by replicate": "2.13 / 1.68 / 1.56 / 1.71 / 1.81 / 1.43", "signal with controls": "0/18"}
{"CDR-L1": "KIMQSLNYSQFNVSNVA", "CDR-L2": "GQETRER", "CDR-L3": "QSYHRLPLS", "log10 Kd (nM) by replicate": "2.10 / 2.23 / 1.74 / 1.55 / 2.03 / 2.11", "signal with controls": "5/18 (3.02)"}
{"CDR-L1": "KISGMYQKESKNKNSIA", "CDR-L2": "EMVTRES", "CDR-L3": "QQYDRLPLS", "log10 Kd (nM) by replicate": "0.66 / 0.67 / 0.51 / 0.54 / 0.65 / 0.62", "signal with controls": "2/18 (3.08)"}
{"CDR-L1": "HIPQMVMYGSCNKNNVA", "CDR-L2": "QVSTREE", "CDR-L3": "QQYHRLPLS", "log10 Kd (nM) by replicate": "0.62 / 0.21 / 0.10 / -0.14 / 0.34 / 0.48", "signal with controls": "3/18 (2.45)"}
{"CDR-L1": "KLSGATRMESRNKASVA", "CDR-L2": "ENSTRES", "CDR-L3": "QQYFRLPLS", "log10 Kd (nM) by replicate": "0.62 / 1.37 / 0.43 / 0.57 / 1.54 / 0.74", "signal with controls": "0/18"}
{"CDR-L1": "NISQMIFMETKHVNNVA", "CDR-L2": "QTSTREE", "CDR-L3": "QDYHRLPLS", "log10 Kd (nM) by replicate": "nd / nd / nd / nd / nd / nd", "signal with controls": "0/18"}
{"CDR-L1": "MISDLMLYGSRNKNPIA", "CDR-L2": "NASTREY", "CDR-L3": "QQYHRLPLE", "log10 Kd (nM) by replicate": "2.30 / 1.76 / 1.41 / 1.16 / 1.82 / 1.99", "signal with controls": "0/18"}
{"CDR-L1": "SLAESVHMESRNKNSVA", "CDR-L2": "DNSTREQ", "CDR-L3": "QHYHRLPLS", "log10 Kd (nM) by replicate": "1.29 / 1.26 / 2.23 / 1.20 / 1.24 / 1.23", "signal with controls": "0/18"}
{"CDR-L1": "QLSISMLHESINKHSVA", "CDR-L2": "EVRTRES", "CDR-L3": "QQYDRLPLS", "log10 Kd (nM) by replicate": "0.78 / 0.78 / 0.62 / 0.96 / 0.64 / 1.31", "signal with controls": "1/18 (3.42)"}
{"CDR-L1": "KLGQSVGYESRNKSRVA", "CDR-L2": "DNSTRES", "CDR-L3": "QQYDRLPLS", "log10 Kd (nM) by replicate": "nd / 1.16 / nd / 0.91 / nd / 1.63", "signal with controls": "1/18 (2.42)"}
{"CDR-L1": "KLGGVTEYEMMNNNSVA", "CDR-L2": "QMTTRES", "CDR-L3": "QQYHRLPLS", "log10 Kd (nM) by replicate": "1.18 / 1.23 / 1.01 / 0.99 / 0.89 / 1.22", "signal with controls": "0/18"}
{"CDR-L1": "KLSGFHQVESINKSNVA", "CDR-L2": "EMVTRES", "CDR-L3": "QQYDRLPLS", "log10 Kd (nM) by replicate": "2.03 / 1.92 / 1.52 / 2.16 / 1.65 / 2.41", "signal with controls": "1/18 (2.76)"}
{"CDR-L1": "IISQSVMFQQTLINSVA", "CDR-L2": "NAQTREE", "CDR-L3": "QQYHRLPLS", "log10 Kd (nM) by replicate": "0.67 / 0.66 / 0.54 / 0.62 / 0.73 / 0.62", "signal with controls": "2/18 (2.53)"}
{"CDR-L1": "QLYAVNDLTSKNSNNVA", "CDR-L2": "EQTTREN", "CDR-L3": "QQYHRLPLS", "log10 Kd (nM) by replicate": "0.88 / 1.28 / 1.91 / 1.13 / 0.98 / 1.24", "signal with controls": "0/18"}
{"CDR-L1": "KLYQSVGYESRNKSRVA", "CDR-L2": "DNSTRES", "CDR-L3": "QQYDRLPLS", "log10 Kd (nM) by replicate": "nd / nd / 2.29 / 3.22 / nd / nd", "signal with controls": "0/18"}
{"CDR-L1": "MISQSFLIGMKAKNSVA", "CDR-L2": "QTSTREE", "CDR-L3": "QQYDRLPLA", "log10 Kd (nM) by replicate": "0.68 / 0.85 / 0.82 / 0.66 / 0.89 / 1.27", "signal with controls": "1/18 (3.12)"}

The first 3 entries again:

{"CDR-L1": "SIYDATGMESRNKNPIA", "CDR-L2": "DVSTRPN", "CDR-L3": "QQYDRLPLS", "log10 Kd (nM) by replicate": "0.26 / 0.14 / 0.04 / 0.03 / 0.07 / 0.21", "signal with controls": "0/18"}
{"CDR-L1": "KLGSSSRFESSNKASIA", "CDR-L2": "DNSTRES", "CDR-L3": "QQYHRLPLS", "log10 Kd (nM) by replicate": "0.07 / 1.38 / 0.98 / 0.92 / 1.18 / 0.47", "signal with controls": "3/18 (2.69)"}
{"CDR-L1": "KIGGVTNGISRSKNSVA", "CDR-L2": "EQSTRED", "CDR-L3": "QQYDRLPLQ", "log10 Kd (nM) by replicate": "nd / nd / -0.21 / nd / 1.42 / 0.54", "signal with controls": "0/18"}